The record followed here is ChEMBL document CHEMBL1155442, “Click chemistry approach to new N-substituted aminocyclitols as potential pharmacological chaperones for Gaucher disease” (J Med Chem, 2010).

The structures appear in SMILES notation.

The assay relates to Glucosylceramide synthase (Homo sapiens). The assay can be described thus: Inhibition of glucosylceramide synthase in human A549 cells at 250 uM after 35 mins by fluorescence-coupled HPLC analysis.

In turn, `CCCCCCCCCn1cc(CCN[C@H]2[C@H](O)[C@@H](O)[C@H](O)[C@@H](O)[C@@H]2O)nn1` returned an inhibition of 30%.

Usually inhibition stands for the share of the control response that was lost under treatment.
